Data on eight compounds can be found in patent US11185076B2 (priority 2017, dated 2021).

Experiment [1] deals with cucumber leaf spot bacteria (Pseudomonas syringae pv. lachrymans). The experiment in a line: Control test on cucumber leaf spot bacterial diseases (spray test). As to conditions: inoculated 3 days after treatment.
Experiment [2] concerns cucumber powdery mildew (Sphaerotheca cucurbitae). Nature of the experiment: Control test on cucumber powdery mildew (spray test), Test Example 6. Format: in vivo. Particulars: inoculated on the same day.
The subject of experiment [3] is cucumber powdery mildew (Pseudoperonospora cubensis). The experiment in a line: Control test on cucumber powdery mildew (spray test), Test Example 7. Format: in vivo. Particulars: 250 ppm, inoculated on the same day.
The test system of experiment [4] is cucumber leaf spot bacteria (Pseudomonas syringae pv. lachrymans). The experiment in a line: Control test on cucumber leaf spot bacterial diseases (soil drench test). As to conditions: 10 days before inoculation.
The subject of experiment [5] is cabbage black rot (Xanthomonas campestris pv. campestris). The experiment in a line: Control test on cabbage black rot (soil drench test). As to conditions: 10 days before inoculation.

Take `CCC1(C(=O)N[C@H](C)c2ccc(Cl)cc2)C(C)C1(Cl)Cl` (stereo partly drawn) [Carpropamide (e), carpropamid]: the “Result (control effect)” value in experiment [1] (250 ppm) was “A (a control value of 50 or more was evaluated as A (high control effect is observed))”; in experiment [2] (250 ppm), “B (a control value of 20 or more was evaluated as B (control effect is observed))”.
The matching figures for `C[C@@H](NC(=O)C(C#N)C(C)(C)C)c1ccc(Cl)cc1Cl` (stereo partly drawn) [Diclosimette (f), diclocymet]: “A (a control value of 50 or more was evaluated as A (high control effect is observed))” and “B (a control value of 20 or more was evaluated as B (control effect is observed))”.
The matching figures for `CC(Oc1ccc(Cl)cc1Cl)C(=O)NC(C)(C#N)C(C)C` (stereo not drawn) [Fenoxanil (g), fenoxanil]: “A (a control value of 50 or more was evaluated as A (high control effect is observed))” and “A (a control value of 50 or more was evaluated as A (high control effect was observed))”.
With `O=C1OCc2c(Cl)c(Cl)c(Cl)c(Cl)c21` [Fthalide (d), fthalide], the “Result (control effect)” value in experiment [3] is listed as “B (a control value of 20 or more was evaluated as B (control effect is observed))”; in experiment [1] (50 ppm), “A (a control value of 50 or more was evaluated as A (high control effect is observed))”; in experiment [1] (250 ppm), “A (a control value of 50 or more was evaluated as A (high control effect is observed))”; in experiment [2] (50 ppm) it was “B (a control value of 20 or more was evaluated as B (control effect is observed))”.
Consider `C=CCOC1=NS(=O)(=O)c2ccccc21` [Probenazole (h), probenazole], for which the “Result (control effect)” value is listed as “B (a control value of 20 or more was evaluated as B (control effect is observed))” in experiment [3]; “A (a control value of 50 or more was evaluated as A (high control effect was observed))” in experiment [4] (250 g ai/10a); “A (a control value of 50 or more was evaluated as A (high control effect is observed))” in experiment [1] (250 ppm); “A (a control value of 50 or more was evaluated as A (high control effect was observed))” in experiment [2] (250 ppm); “C (A control value of less than 20 was evaluated as C (low control effect or no control effect))” in experiment [5] (250 g ai/10a).
With `O=C1CCc2cccc3c2N1CC3` [Pyroquilon (b), pyroquilon], the “Result (control effect)” value in experiment [3] is “B (a control value of 20 or more was evaluated as B (control effect is observed))”; in experiment [4] (180 g ai/10a), “A (a control value of 50 or more was evaluated as A (high control effect was observed))”; in experiment [1] (50 ppm), “A (a control value of 50 or more was evaluated as A (high control effect is observed))”; in experiment [1] (250 ppm), “A (a control value of 50 or more was evaluated as A (high control effect is observed))”; in experiment [2] (50 ppm), “B (a control value of 20 or more was evaluated as B (control effect is observed))”; in experiment [5] (22.5 g ai/10a) it was “B (a control value of 20 or more was evaluated as B (control effect was observed))”. Further, in experiment [5] (45 g ai/10a), the “Result (control effect)” value is listed as “B (a control value of 20 or more was evaluated as B (control effect was observed))”.
With `Cc1ccc(C(=O)NC[C@@H](NC(=O)OCC(F)(F)F)C(C)C)cc1` [Tolprocarb (a), tolprocarb], the “Result (control effect)” value in experiment [3] is listed as “B (a control value of 20 or more was evaluated as B (control effect is observed))”; in experiment [4] (180 g ai/10a) it was “B (a control value of 20 or more was evaluated as B (control effect was observed))”; in experiment [1] (50 ppm) it was “A (a control value of 50 or more was evaluated as A (high control effect is observed))”; in experiment [1] (250 ppm), “A (a control value of 50 or more was evaluated as A (high control effect is observed))”; in experiment [2] (50 ppm) it was “B (a control value of 20 or more was evaluated as B (control effect is observed))”; in experiment [5] (22.5 g ai/10a), “B (a control value of 20 or more was evaluated as B (control effect was observed))”. In experiment [5] (45 g ai/10a), the “Result (control effect)” value was “B (a control value of 20 or more was evaluated as B (control effect was observed))”.
For the compound `Cc1cccc2sc3nncn3c12` [Tricyclazole (c), tricyclazole], the “Result (control effect)” value in experiment [3] was “B (a control value of 20 or more was evaluated as B (control effect is observed))”; in experiment [4] (180 g ai/10a) it was “A (a control value of 50 or more was evaluated as A (high control effect was observed))”; in experiment [1] (50 ppm), “A (a control value of 50 or more was evaluated as A (high control effect is observed))”; in experiment [1] (250 ppm), “A (a control value of 50 or more was evaluated as A (high control effect is observed))”; in experiment [2] (50 ppm), “A (a control value of 50 or more was evaluated as A (high control effect was observed))”; in experiment [5] (22.5 g ai/10a) it was “B (a control value of 20 or more was evaluated as B (control effect was observed))”. Also, the “Result (control effect)” value in experiment [5] (45 g ai/10a) was “A (a control value of 50 or more was evaluated as A (high control effect was observed))”.
